Source: patent US10131702B2, “Glucagon-GLP-1-GIP triple agonist compounds” (priority 2013, dated 2018)

Sequences of proteins named here, by UniProt entry; tags and fusion partners are left off. Residues count along the entry.
UniProt P43220, 24-463: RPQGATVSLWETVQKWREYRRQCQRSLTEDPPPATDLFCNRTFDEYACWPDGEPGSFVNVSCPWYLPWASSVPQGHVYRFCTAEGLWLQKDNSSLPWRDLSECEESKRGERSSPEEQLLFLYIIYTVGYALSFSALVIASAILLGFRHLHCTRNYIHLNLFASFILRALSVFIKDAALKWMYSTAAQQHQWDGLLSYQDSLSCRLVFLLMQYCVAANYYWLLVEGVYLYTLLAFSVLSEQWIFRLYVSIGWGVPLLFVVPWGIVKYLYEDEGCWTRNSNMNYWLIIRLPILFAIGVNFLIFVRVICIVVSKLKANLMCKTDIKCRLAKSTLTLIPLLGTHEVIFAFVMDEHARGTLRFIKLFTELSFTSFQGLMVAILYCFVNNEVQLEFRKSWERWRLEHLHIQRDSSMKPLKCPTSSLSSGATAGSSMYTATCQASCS
UniProt P01275, 53-81: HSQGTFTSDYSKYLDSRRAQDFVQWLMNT

Tests used:
human GLP-1 R = target: T1, human GLP-1 R (Homo sapiens, UniProt P43220); assay: cAMP induction in HEK293 cells expressing human GLP-1 R (AlphaScreen cAMP kit); format: cell-based; settings: read-out: GLP1 R (EC50 in nM), Table 2b (most comprehensive data), average EC50, cAMP
T1 construct: expressed in transfected cells

human GIP R = target: T2, human GIP R (Homo sapiens, UniProt P48546); assay: cAMP induction in HEK293 cells expressing human GIP R (AlphaScreen cAMP kit); format: cell-based; settings: read-out: GIP R (EC50 in nM), Table 2b (most comprehensive data), average EC50, cAMP
T2 construct: expressed in transfected cells
T2 sequence (P48546 22-466): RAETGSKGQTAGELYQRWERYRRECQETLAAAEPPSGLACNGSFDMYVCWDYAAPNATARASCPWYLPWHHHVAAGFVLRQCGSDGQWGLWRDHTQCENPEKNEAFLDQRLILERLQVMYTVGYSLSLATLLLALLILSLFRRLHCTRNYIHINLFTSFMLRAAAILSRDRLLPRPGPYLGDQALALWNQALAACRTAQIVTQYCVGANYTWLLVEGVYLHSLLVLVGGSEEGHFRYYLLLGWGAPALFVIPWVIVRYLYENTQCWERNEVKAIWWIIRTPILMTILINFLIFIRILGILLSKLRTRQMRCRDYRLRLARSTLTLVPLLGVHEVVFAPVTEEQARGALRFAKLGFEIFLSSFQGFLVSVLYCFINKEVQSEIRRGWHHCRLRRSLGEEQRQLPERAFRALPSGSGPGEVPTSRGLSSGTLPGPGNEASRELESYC

human GIP receptor = target: T3, human GIP receptor (human, UniProt P48546 22-466); assay: cell-based or functional assay
T3 sequence: T2 sequence (P48546 22-466)

Row | Substance | EC50 (human GLP-1 R) [nM] | EC50 (human GIP R) [nM] | EC50 (cAMP induction) (human GIP receptor) [pM]
1 | glucagon [reference compound] | 0.01 | 0.415 | –
2 | glucagon (from UniProt P01275 53-81) (peptide) | – | – | 415
